# Publication PMC5080983 (Nature communications, 2015)
# Tested on: KDM5A1–797
# Test: Demethylation of methylated H3K4 peptides as substrates
# Type: biochemical
# Settings: H3K4me3/2/1 peptides aa 1–18
substance,measurement,value
H3K4me3: H3 tail peptide (aa 1–18) in which Lys4 is tri-methylated,demethylation as substrate (in words),preference
